Here are results for eight compounds from ChEMBL document CHEMBL3091339 (J Med Chem, 2013).

The species named for one data set is Mus musculus. The data set can be described thus: animal or person. Conditions: CF-1, Hindlimb, po, 1 h.
For data set [1], the species on record is Rattus norvegicus. The data set can be described thus: animal or person. Conditions: Sprague-Dawley, Hindlimb, po, 4 h.
Data set [2] in a line: Metabolic stability in rat liver microsomes assessed as compound remaining after 60 mins. The class given is ADME. Conditions: read-out: Stability.
The species entered for data set [3] is Rattus norvegicus. The data set can be described thus: animal or person. Conditions: Sprague-Dawley, Hippocampus, ip.

In turn, `NS(=O)(=O)NCC1Oc2ccccc2O1` had an ED50 in the data set listed under Mus musculus of 131 mg/kg. Still for that read-out and setting: the figure for `NS(=O)(=O)NC[C@H]1COc2c(F)cccc2O1` is 230 mg/kg.

Turning to `NS(=O)(=O)NC[C@@H]1COc2cc(Cl)ccc2O1`, the ED50 in the data set listed under Rattus norvegicus [1] was 50 mg/kg. As for `NS(=O)(=O)NCC1COc2ccccc2OC1`, the 50% effect level in the data set filed under Mus musculus (ED50) was put at a dose of 267 mg/kg. The same measure, in the same setting: the figure for `NS(=O)(=O)NC[C@H]1COc2cc(F)ccc2O1` is 161 mg/kg. For `NS(=O)(=O)NC[C@H]1COc2cc(Cl)ccc2O1` [JNJ-26489112], the remaining at 1 h in data set [2] was determined as 92%. The ED50 in the data set listed under Rattus norvegicus [3] was found to be 68.5 mg/kg; in the data set listed under Rattus norvegicus [1] it was 43 mg/kg.

`NS(=O)(=O)NC[C@H]1COc2ccc(Cl)cc2O1` came in with an ED50 in the data set filed under Mus musculus of 104 mg/kg. In the data set listed under Mus musculus, `NS(=O)(=O)NC[C@H]1COc2cc(Cl)c(Cl)cc2O1` had an ED50 of 296 mg/kg.
